# According to patent US6362236B1, “Inhibition of lipoprotein oxidation” (Warner-Lambert Company, priority 1997, dated 2002):
# Test system: LDL
# Experiment: Copper ion (CuSO4)-induced LDL oxidation
# Assay type: biochemical, human
# Conditions: 10 μM CuSO4; control 50±7; n=3
row,SMILES,lag time required for the initiation of LDL oxidation (conjugated dienes formation at 234 nm) [min]
1,"CC(C)c1c(C(=O)Nc2ccccc2)c(-c2ccccc2)c(-c2ccc(F)cc2)n1CC[C@@H](O)C[C@@H](O)CC(=O)O [atorvastatin, reference compound]",50 ± 7
2,"CC(C)c1c(C(=O)Nc2ccccc2O)c(-c2ccccc2)c(-c2ccc(F)cc2)n1CC[C@@H](O)C[C@@H](O)CC(=O)O [ortho-hydroxy metabolite, ortho-hydroxy atorvastatin]",180 ± 25
3,"CC(C)c1c(C(=O)Nc2ccc(O)cc2)c(-c2ccccc2)c(-c2ccc(F)cc2)n1CC[C@@H](O)C[C@@H](O)CC(=O)O [para-hydroxy metabolite, para-hydroxy atorvastatin]",180 ± 25
